Values of other authors, collected in publication PMC8136485, “Were Ancestral Proteins Less Specific?” (Molecular Biology and Evolution, 2021).

Tests used:
[1] = molecular target: SIP peptide (Homo sapiens) (UniProt Q9HB71); conditions: cited from earlier work
[2] = molecular target: Annexin I peptide (Homo sapiens) (UniProt P04083); conditions: cited from earlier work

In the case of hA6 (S100A6) (from UniProt P06703), the Kd [1] is listed as 26 µM and the Kd [2] is listed as 17 µM.
